“Also recorded” adds a separate entry of the source. Read-outs that look alike come from different tables or passages of the source.

For the data set the following is noted: rats.

Turning to `Cc1ccc(NC(=O)c2ccc(CN3CCN(C)CC3)cc2)cc1Nc1nccc(-c2cccnc2)n1` [Imatinib, reference compound], the effects on kinetics entry (imatinib 30 mg/kg IG + h-GS 100 mg/kg/day 21 days, vs l-GS group) was “no significant effects”; the effects on kinetics result (imatinib 30 mg/kg IG + h-GS and h-GT 100 mg/kg/day each 21 days, vs h-GS or h-GT groups separately) is “no significant effects”. Moreover, the “differences in pharmacokinetic parameters” value runs as follows: (imatinib 30 mg/kg IG + l-GS 50 mg/kg/day 21 days, vs imatinib only) “no significant differences”; (imatinib 30 mg/kg IG, l-GT vs h-GT group) “no significant differences”. Also, the effect on pharmacokinetics result (imatinib 30 mg/kg IG + l-GS and l-GT 50 mg/kg/day each 21 days, vs imatinib only) is listed as “no significant effects; also recorded: not significantly affected”.

The values are drawn from PMC7670682 (BMC Pharmacology & Toxicology, 2020).
